# Experimental melting point values from OPERA 2.9

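The numbers are reported measurements, compiled and curated for the OPERA QSAR suite. One number stands for a compound and property, with no spread given. How each value was measured is not recorded, so precision varies. The measured form (salt, isomer or mixture) is not always the one drawn. Some entries may be limits or estimates that an upstream database listed as plain numbers.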

Melting points are in °C.
The databases behind each value are named after "via".

| MP (°C) | SMILES | via |
|---|---|---|
| 98 | Nc1ncc(Cc2ccccc2F)s1 | OCHEM |
| 97 | C=C1CC[C@H](O)C/C1=C/C=C1\CCC[C@]2(C)[C@@H]([C@H](C)CC[C@H](C)C(C)C)CC[C@@H]12 | OCHEM |
| 82 | CCCCCCCCCCCCCCCC(=O)OCC[N+](C)(C)CCOC(=O)CCCCCCCCCCCCCCC.[Cl-] | eChemPortal |
| 213 | O=C(O)C=Cc1ccc(SC(F)(F)F)cc1 | OCHEM |
| 81 | O=C(O)CSc1ccccc1F | OCHEM |
| 119 | COc1cc(C[C@H]2COC(=O)[C@@H]2Cc2ccc(O)c(OC)c2)ccc1O | PubChem |
| 164.8 | OCC(CO)O[C@H]1O[C@H](CO)[C@@H](O)[C@H](O)[C@H]1O | eChemPortal |
| 57.5 | O=C1CCCCC1c1ccccc1 (configuration not stated) | OCHEM |
| 250 | COc1cc2c(C#N)c(OC)nc(N)c2c(N)n1 | OCHEM |
| 143 | N#CCCn1cnc2ccccc2c1=O | OCHEM |
| 228 | O=c1[nH]c(CCl)nc2scc(-c3ccccc3)c12 | OCHEM |
| 234 | O=C(O)C1CNCc2ccccc21 (configuration not stated) | OCHEM |
| 176 | CC1=NN(Cc2ccccc2)C(=O)C1 | OCHEM |
| 41.25 | Oc1ccccc1-c1cccs1 | eChemPortal |
| 255 | CC1(C)C2CCC1(CS(=O)(=O)O)C(=O)/C2=C/c1ccc(/C=C2/C(=O)C3(CS(=O)(=O)O)CCC2C3(C)C)cc1 | PubChem |
| 191.9 | CCc1cc(C)cc(CC)c1Nc1ccc(Nc2c(CC)cc(C)cc2CC)c2c1C(=O)c1ccccc1C2=O | eChemPortal |
| 166 | O=C(O)CN1C(=O)NC2(CCCC2)C1=O | OCHEM |
| 118 | O=c1ccc2cc(S(=O)(=O)Cl)ccc2o1 | OCHEM |
| 123 | CCCCCCOc1ccc(C(=O)O)cc1OC | OCHEM |
| 42.5 | CN(C)CCN(Cc1ccc(Cl)cc1)c1ccccn1 | PubChem |
| 122 | COc1c(O)c(Cl)c(Cl)c(Cl)c1Cl | QSARDB |
| 84 | CNC(=O)c1ccccc1O | OCHEM |
| 113 | Cc1ccc(-n2[nH]nnc2=S)cc1 | OCHEM |
| 87 | COc1ccccc1C=NO | OCHEM |
| -21 | NCCO.NCCO.NCCO.O=C(O)CN(CC(=O)O)CC(=O)O | eChemPortal |
| 124 | c1ccc(NC2CCCCC2)nc1 | OCHEM |
| 250 | Nc1ncnc(Nc2ccc(F)cc2)n1 | OCHEM |
| 210 | O=C1NC(=O)C(Cc2ccccc2)(c2ccccc2)N1 (configuration not stated) | OCHEM |
| 128 | O=C(O)COc1ccc(Oc2ccccc2)cc1 | OCHEM |
| 139 | O=C(O)CCc1nc(-c2ccccc2)no1 | OCHEM |
| 94 | Cc1c(NC(=S)Nc2c(C)n(C)n(-c3ccccc3)c2=O)c(=O)n(-c2ccccc2)n1C | OCHEM |
| 79 | Cc1cc(C=O)c(C)n1-c1cccc(F)c1 | OCHEM |
| 62 | Cc1nn(-c2ccccc2)c(C)c1N | OCHEM |
| 99 | O=C(Nc1cccc([N+](=O)[O-])c1)OCC(F)(F)F | OCHEM |
| 109 | CNC(=O)c1cccc(O)c1 | OCHEM |
| 259 | Nc1nncc(-c2ccc(Br)cc2)n1 | OCHEM |
| 121 | O=C(O)CCCSc1nc2ccccc2[nH]1 | OCHEM |
| 161 | CN1CCN(c2ccc(C(=O)O)cc2[N+](=O)[O-])CC1 | OCHEM |
| 81 | CCOC(=O)C(C[C@]1(CC)CCCN2CCc3c([nH]c4ccccc34)[C@@H]21)C(=O)OCC | eChemPortal |
| 110 | CCOC(=O)CN1C(=O)CNC1=O | OCHEM |
| 242 | Cc1cc(C)n2[nH]c(=O)cc2n1 | OCHEM |
| 142 | S=c1[nH]c2ccccc2n1-c1ccccc1 | OCHEM |
| 90 | CCc1ccc(C(=O)O)o1 | OCHEM |
| 31 | Clc1ccc(Oc2ccccc2Cl)cc1 | QSARDB |
| 137 | CN(c1ccccc1)S(=O)(=O)c1ccccc1C(=O)O | OCHEM |
| 127 | Clc1ccccc1Nc1nc2ccccc2s1 | OCHEM |
| 310 | O=c1nc[nH]c2cc(N3CCOCC3)c([N+](=O)[O-])cc12 | OCHEM |
| 176 | COc1ccccc1Nc1ncccc1C(=O)O | OCHEM |
| 128 | CC1(C)[C@@H]2CC[C@@]1(C)C(=O)[C@H]2C(=O)O | OCHEM |
| 105 | COC(=O)C(=O)CC(=O)c1ccc(OC)cc1 | OCHEM |
| 238 | O=C(O)c1cccc(N2C(=O)CCC2=O)c1 | OCHEM |
| 196 | COCCCN1CCC(NC(=O)c2cc(Cl)c(N)c3c2OCC3)CC1 | PubChem |
| 193 | COc1cc2c(cc1OC)CC(=O)NCC2 | OCHEM |
| 246 | Cc1cc(C)c2c(N)c(C(=O)NN)sc2n1 | OCHEM |

A selection of 5 entries from above:

| SMILES | MP (°C) | via |
|---|---|---|
| OCC(CO)O[C@H]1O[C@H](CO)[C@@H](O)[C@H](O)[C@H]1O | 164.8 | eChemPortal |
| CCOC(=O)CN1C(=O)CNC1=O | 110 | OCHEM |
| COc1c(O)c(Cl)c(Cl)c(Cl)c1Cl | 122 | QSARDB |
| C=C1CC[C@H](O)C/C1=C/C=C1\CCC[C@]2(C)[C@@H]([C@H](C)CC[C@H](C)C(C)C)CC[C@@H]12 | 97 | OCHEM |
| CN1CCN(c2ccc(C(=O)O)cc2[N+](=O)[O-])CC1 | 161 | OCHEM |

From the experimental data distributed with OPERA 2.9.